Data published in patent US20140275489A1 (Regeneron, published 2014).

Target: T1, full-length human APLNR (amino acids 1-380 of accession number NP-005152.1) (human, UniProt P35414 1-380)
T1 sequence (looked up): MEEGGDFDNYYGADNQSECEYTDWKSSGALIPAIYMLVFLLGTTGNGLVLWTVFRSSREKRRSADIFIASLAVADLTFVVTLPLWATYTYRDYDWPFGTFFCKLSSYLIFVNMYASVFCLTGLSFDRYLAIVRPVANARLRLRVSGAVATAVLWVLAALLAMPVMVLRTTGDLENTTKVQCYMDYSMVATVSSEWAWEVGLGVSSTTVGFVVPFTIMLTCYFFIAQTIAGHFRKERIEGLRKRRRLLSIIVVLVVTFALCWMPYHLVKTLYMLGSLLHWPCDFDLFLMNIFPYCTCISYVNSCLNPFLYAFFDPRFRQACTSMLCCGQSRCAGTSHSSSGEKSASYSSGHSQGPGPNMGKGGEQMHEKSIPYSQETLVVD
Assay: cell-based or functional assay

QRPRLSHKGPMPA [Apelin-F13A] was tested, and the “EC50 (M), CRE assay (cAMP reporter) in HEK293/CRE-luc/hAPLNR cells” value was 1.03e-10 M.
